Patent US20220257775A1 (GLYCOMIMETICS, INC., priority 2019, published 2022)

Protein sequences, listed by entry. Tags and fused reporters are not part of them. Chains listed by the source or under a name are the forms on record and can include a tag or linker. Residues count along the entry.
UniProt P16581, 22-556 with tags or gaps limits assumed: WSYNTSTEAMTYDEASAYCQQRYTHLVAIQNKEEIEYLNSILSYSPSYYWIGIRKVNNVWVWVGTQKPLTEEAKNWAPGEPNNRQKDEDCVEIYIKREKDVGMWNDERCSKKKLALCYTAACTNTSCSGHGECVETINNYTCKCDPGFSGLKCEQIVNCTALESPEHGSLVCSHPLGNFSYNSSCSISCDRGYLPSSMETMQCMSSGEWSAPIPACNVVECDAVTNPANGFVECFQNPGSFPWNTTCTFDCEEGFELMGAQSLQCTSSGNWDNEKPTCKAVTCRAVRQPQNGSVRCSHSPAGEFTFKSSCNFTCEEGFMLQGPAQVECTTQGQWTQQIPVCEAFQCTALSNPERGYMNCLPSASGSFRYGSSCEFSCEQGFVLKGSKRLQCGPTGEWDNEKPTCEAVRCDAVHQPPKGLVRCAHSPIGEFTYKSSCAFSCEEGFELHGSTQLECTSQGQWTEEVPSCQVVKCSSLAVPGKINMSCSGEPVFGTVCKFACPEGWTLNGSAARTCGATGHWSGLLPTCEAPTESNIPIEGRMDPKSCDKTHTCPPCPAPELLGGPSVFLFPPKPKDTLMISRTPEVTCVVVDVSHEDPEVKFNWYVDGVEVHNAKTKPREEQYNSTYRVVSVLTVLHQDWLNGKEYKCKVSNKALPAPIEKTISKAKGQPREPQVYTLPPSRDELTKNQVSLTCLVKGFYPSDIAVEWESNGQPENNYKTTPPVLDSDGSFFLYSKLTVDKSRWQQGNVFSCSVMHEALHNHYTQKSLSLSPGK

Target: recombinant human E-selectin/CD63E Fc Chimera (Homo sapiens, UniProt P16581)
Assay: E-Selectin Activity - Analysis by SPR
Conditions: Biacore X100, E-selectin captured on anti-human IgG (Fc) chip

Q: With `CC[C@H]1C[C@@H](C(=O)NCCNC(=O)c2cn(CCOCCOCCOCCOCCOCCn3cc(C(=O)NCCNC(=O)[C@@H]4C[C@H](CC)[C@@H](O[C@@H]5O[C@@H](C)[C@@H](O)[C@@H](O)[C@@H]5O)[C@H](O[C@@H]5O[C@H](CO)[C@H](O)[C@H](O[C@@H](CC6CCCCC6)C(=O)N6CCC6)[C@H]5NC(C)=O)C4)nn3)nn2)C[C@@H](O[C@@H]2O[C@H](CO)[C@H](O)[C@H](O[C@@H](CC3CCCCC3)C(=O)N3CCC3)[C@H]2NC(C)=O)[C@@H]1O[C@@H]1O[C@@H](C)[C@@H](O)[C@@H](O)[C@@H]1O` as the compound, how does the Kd read?
A: Its Kd is 2 nM.
